# Values of other authors, collected in paper PMC8672735, “Computational and experimental investigation of the effect of cation structure on the solubility of anionic flow battery active-materials” (Chemical Science, 2021).
# Details: MeCN (ϵ = 37); +4 state, [Nxxxx]2[VBH]; cited from earlier work
substance,measurement,value
Tetramethylammonium vanadium(IV)-bis-hydroxyiminodiacetate [[N1111]2[VBH]],Experimental solubility (maximum concentration of VBH in the electrolyte),4 mM
